How the values were obtained:
[1] = test system: primate polyomavirus (SV40); format: cell-based, simian polyomavirus SV40
murine polyomavirus = format: cell-based

| SMILES | selectivity index SV40 PML-1 strain EK [1] | selectivity index SV40 PML-2 strain DAR [1] | selectivity index SV40 strain A2895 [1] | selectivity index 2PTA2 (murine polyomavirus) | selectivity index LID-1 (murine polyomavirus) | selectivity index MN/RDE Toronto (murine polyomavirus) | selectivity index PTA (murine polyomavirus) |
| --- | --- | --- | --- | --- | --- | --- | --- |
| Nc1ncn(C[C@@H](CO)OCP(=O)(O)O)c(=O)n1 [Compound 3, (S)-1-[3-hydroxy-2-(Phosphonomethoxy)propyl]-5-azacytosine] | 40 | 34 | 40 | 33 | 22 | 56 | 28 |
| Nc1ccn(C[C@@H](CO)OCP(=O)(O)O)c(=O)n1 [HPMPC, (S)-1-(3-hydroxy-2-phosphonylmethoxypropyl)cytosine, reference compound] | 14 | 14 | 17 | 15 | 14 | 31 | 13 |

Reference: US8153787B2 (priority 2005, dated 2012)
